For 13 compounds, IC50 results are on record in patent US20260022143A1, “Cyclic Peptide Inhibitors of IL-23” (JANSSEN PHARMACEUTICA NV, priority 2022, published 2026).

In the assay the target is T1, IL-23R (Homo sapiens, UniProt Q5VWK5).
T1 construct: host or cells: HEK293
T1 sequence (Q5VWK5 24-629): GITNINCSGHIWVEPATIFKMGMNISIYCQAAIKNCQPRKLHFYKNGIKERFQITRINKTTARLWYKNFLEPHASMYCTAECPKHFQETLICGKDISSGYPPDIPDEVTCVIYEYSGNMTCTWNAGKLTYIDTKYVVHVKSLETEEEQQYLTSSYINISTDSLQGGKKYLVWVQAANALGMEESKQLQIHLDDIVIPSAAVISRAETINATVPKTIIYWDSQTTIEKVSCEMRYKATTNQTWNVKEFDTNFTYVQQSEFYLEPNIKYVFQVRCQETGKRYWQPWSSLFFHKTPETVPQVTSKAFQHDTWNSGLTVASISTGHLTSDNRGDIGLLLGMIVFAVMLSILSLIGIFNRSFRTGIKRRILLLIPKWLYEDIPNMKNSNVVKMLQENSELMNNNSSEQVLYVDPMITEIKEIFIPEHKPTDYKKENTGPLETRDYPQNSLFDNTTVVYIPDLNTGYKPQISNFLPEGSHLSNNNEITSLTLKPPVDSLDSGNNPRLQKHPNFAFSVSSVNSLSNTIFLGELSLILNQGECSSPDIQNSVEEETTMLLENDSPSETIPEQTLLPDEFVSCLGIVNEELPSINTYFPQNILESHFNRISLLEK
Kind of assay: IL23R Reporter Assay. The class given is cell-based. As to conditions: HEK293 cells containing IL-23R, IL-12RP1 and STAT-inducible firefly luciferase reporter; 10 ng/mL IL-23 (EC90); 5 h at 37° C.; read-out: IL23R Reporter Assay. (A reporter such as luciferase makes a cellular process visible.)
For `CC(=O)NCCCC[C@@H]1NC(=O)[C@H](Cc2c[nH]c3c(C)cccc23)NC(=O)[C@H]([C@@H](C)O)NC(=O)[C@H](CC(N)=O)NC(=O)[C@@H](NC(=O)[C@@H](CCCC[N+](C)(C)C)NC(C)=O)C(C)(C)SSC(C)(C)[C@@H](C(=O)N[C@@H](Cc2ccc(OCCCCC[N+](C)(C)C)cc2)C(=O)N[C@@H](Cc2ccc3ccccc3c2)C(=O)NC2(C(=O)N[C@@H](CCCCNC(C)=O)C(=O)N[C@@H](CC(N)=O)C(=O)N[C@@H](Cc3cccnc3)C(=O)N(C)CC(N)=O)CCOCC2)NC1=O` [compound 450, MeCO-k(Me)3-Pen(3)-N-T-7MeW-K(Ac)-Pen(3)-TMAPF-2Nal-THP-K(Ac)-N-3Pya-Sar-CONH2], the IC50 came to 1.7 nM.

Take `CC(=O)N(C)CCCC[C@@H]1NC(=O)[C@H](Cc2c[nH]c3c(C)cccc23)NC(=O)[C@H]([C@@H](C)O)NC(=O)[C@H](CC(=O)N(C)C)NC(=O)[C@@H](NC(=O)CCOCCOCC[N+](C)(C)C)C(C)(C)SSC(C)(C)[C@@H](C(=O)N[C@@H](Cc2ccc(OCCCC[N+](C)(C)CC[N+]3(C)CCOCC3)cc2)C(=O)N[C@@H](Cc2ccc3ccccc3c2)C(=O)NC2(C(=O)N[C@@H](CCCCN(C)C(C)=O)C(=O)N[C@@H](CC(N)=O)C(=O)N[C@@H](Cc3cccnc3)C(=O)N(C)CC(=O)N(C)C)CCOCC2)NC1=O` [compound 271, cPEG3aCO-Pen(3)-N(N(Me)2)-T-7MeW-K(NMeAc)-Pen(3)-morfTMA4F-2Nal-THP-K(NMeAc)-N-3Pya-Sar-CON(Me)2]: the IC50 came out at 2.2 nM.

As for `COCCOCCOCCOCCOCCOCCC(=O)N(C)CC[C@@H]1NC(=O)[C@H](Cc2c[nH]c3c(C)cccc23)NC(=O)[C@H]([C@@H](C)O)NC(=O)[C@H](CC(=O)N(C)C)NC(=O)[C@@H](NC(C)=O)C(C)(C)SSC(C)(C)[C@@H](C(=O)N[C@@H](Cc2ccc(OCCN)cc2)C(=O)N[C@@H](Cc2ccc3ccccc3c2)C(=O)NC2(C(=O)N[C@@H](CCC(=O)O)C(=O)N[C@@H](CC(N)=O)C(=O)N[C@@H](Cc3cccnc3)C(=O)N(C)CC(=O)N(C)C)CCOCC2)NC1=O` [compound 158, MeCO-Pen(3)-N(N(Me)2)-T-7MeW-Dab(NMeCOmPEG6)-Pen(3)-AEF-2Nal-THP-E-N-3Pya-Sar-CON(Me)2], the IC50 stood at 3.9 nM.

Take `CC(=O)N(C)CCCC[C@@H]1NC(=O)[C@H](Cc2c[nH]c3c(C)cccc23)NC(=O)[C@H]([C@@H](C)O)NC(=O)[C@H](CC(=O)N(C)C)NC(=O)[C@@H](NC(=O)CCOCCOCC[N+](C)(C)C)C(C)(C)SSC(C)(C)[C@@H](C(=O)N[C@@H](Cc2ccc(OCCCCC[N+](C)(C)C)cc2)C(=O)N[C@@H](Cc2ccc3ccccc3c2)C(=O)NC2(C(=O)N[C@@H](CCC(=O)N(C)C)C(=O)N[C@@H](CC(N)=O)C(=O)N[C@@H](Cc3cccnc3)C(=O)N(C)CC(=O)N(C)C)CCOCC2)NC1=O` [compound 310, cPEG3aCO-Pen(3)-N(N(Me)2)-T-7MeW-K(NMeAC)-Pen(3)-TMAPF-2Nal-THP-Q(N(Me)2)-N-3Pya-Sar-CON(Me)2]: the IC50 is 2.2 nM.

Regarding `CC(=O)NCCCC[C@@H]1NC(=O)[C@H](Cc2c[nH]c3c(C)cccc23)NC(=O)[C@H]([C@@H](C)O)NC(=O)[C@H](CC(N)=O)NC(=O)[C@@H](NC(=O)CCOCCOCC[N+](C)(C)C)C(C)(C)SSC(C)(C)[C@@H](C(=O)N[C@@H](Cc2ccc(-n3cc(CCC[N+](C)(C)C)nn3)cc2)C(=O)N[C@@H](Cc2ccc3ccccc3c2)C(=O)NC2(C(=O)N[C@@H](CCCCNC(C)=O)C(=O)N[C@@H](CC(N)=O)C(=O)N[C@@H](Cc3cccnc3)C(=O)N(C)CC(N)=O)CCOCC2)NC1=O` [compound 420, cPEG3aCO-Pen(3)-N-T-7MeW-K(Ac)-Pen(3)-F(4TzlTMA3)-2Nal-THP-K(Ac)-N-3Pya-Sar-CONH2], the IC50 was 2.3 nM.

On to `CC(=O)NCCCC[C@@H]1NC(=O)[C@H](Cc2c[nH]c3c(C)cccc23)NC(=O)[C@H]([C@@H](C)O)NC(=O)[C@H](CC(N)=O)NC(=O)[C@@H](NC(C)=O)C(C)(C)SSC(C)(C)[C@@H](C(=O)N[C@@H](Cc2ccc(OCCN)cc2)C(=O)N[C@@H](Cc2ccc3ccccc3c2)C(=O)NC2(C(=O)N[C@@H](CCCCNC(C)=O)C(=O)N[C@@H](CC(N)=O)C(=O)N[C@@H](Cc3cccnc3)C(=O)N(C)CC(=O)NCCOCCOCCOCCOCC[N+](C)(C)C)CCOCC2)NC1=O` [compound 155], for which the IC50 worked out at 2.2 nM.

`CC(=O)NCCCC[C@@H]1NC(=O)[C@H](Cc2c[nH]c3c(C)cccc23)NC(=O)[C@H]([C@@H](C)O)NC(=O)[C@H](CC(N)=O)NC(=O)[C@@H](NC(=O)C(F)(F)F)C(C)(C)SSC(C)(C)[C@@H](C(=O)N[C@@H](Cc2ccc(OCCN)cc2)C(=O)N[C@@H](Cc2ccc3ccccc3c2)C(=O)NC2(C(=O)N[C@@H](CCCCNC(C)=O)C(=O)N[C@@H](CC(N)=O)C(=O)N[C@@H](Cc3cccnc3)C(=O)N3CC(F)(F)C[C@H]3C(=O)N(C)C)CCOCC2)NC1=O` [compound 73]: the IC50 was 1.9 nM.

As for `CC(=O)NCCCC[C@@H]1NC(=O)[C@H](Cc2c[nH]c3c(C)cccc23)NC(=O)[C@H]([C@@H](C)O)NC(=O)[C@H](CC(N)=O)NC(=O)[C@@H](NC(C)=O)C(C)(C)SSC(C)(C)[C@@H](C(=O)N[C@@H](Cc2ccc(OCC[N+]3(C)CCOCC3)cc2)C(=O)N[C@@H](Cc2ccc3ccccc3c2)C(=O)NC2(C(=O)N[C@@H](CCC(=O)O)C(=O)N[C@@H](CC(N)=O)C(=O)N[C@@H](Cc3cccnc3)C(=O)N(C)CC(N)=O)CCOCC2)NC1=O` [compound 431], the IC50 amounted to 2.3 nM.

`CC(=O)N[C@@H]1C(=O)N[C@@H](CC(=O)N(C)C)C(=O)N[C@@H]([C@@H](C)O)C(=O)N[C@@H](Cc2c[nH]c3c(C)cccc23)C(=O)N[C@@H](CCCCN(C)C(C)=O)C(=O)N[C@H](C(=O)N[C@@H](Cc2ccc(OCCCCC[N+](C)(C)C)cc2)C(=O)N[C@@H](Cc2ccc3ccccc3c2)C(=O)NC2(C(=O)N[C@@H](CCCCN(C)C(C)=O)C(=O)N[C@@H](CC(N)=O)C(=O)N[C@@H](Cc3cccnc3)C(=O)N(C)CC(=O)NCCOCCOCC[N+](C)(C)C)CCOCC2)C(C)(C)SSC1(C)C` [compound 219, MeCO-Pen(3)-N(N(Me)2)-T-7MeW-K(NMeAc)-Pen(3)-TMAPF-2Nal-THP-K(NMeAc)-N-3Pya-Sar-CO(NHPEG3a)]: the IC50 was 2.7 nM.

As for `CC(=O)NCCCC[C@@H]1NC(=O)[C@H](Cc2c[nH]c3c(C)cccc23)NC(=O)[C@H]([C@@H](C)O)NC(=O)[C@H](CC(N)=O)NC(=O)[C@@H](NC(=O)CCOCCOCC[N+](C)(C)C)C(C)(C)SSC(C)(C)[C@@H](C(=O)N[C@@H](Cc2ccc(OCCCCC[N+](C)(C)C)cc2)C(=O)N[C@@H](Cc2ccc3ccccc3c2)C(=O)NC2(C(=O)N[C@@H](CCC(=O)O)C(=O)N[C@@H](CC(N)=O)C(=O)N[C@@H](Cc3cccnc3)C(=O)N(C)CC(N)=O)CCOCC2)NC1=O` [compound 427, cPEG3aCO-Pen(3)-N-T-7MeW-K(Ac)-Pen(3)-TMAPF-2Nal-THP-E-N-3Pya-Sar-CONH2], the IC50 came to 3.9 nM.

Turning to `CC(=O)NCCCC[C@@H]1NC(=O)[C@H](Cc2c[nH]c3c(C)cccc23)NC(=O)[C@H]([C@@H](C)O)NC(=O)[C@H](CC(N)=O)NC(=O)[C@@H](NC(C)=O)C(C)(C)SSC(C)(C)[C@@H](C(=O)N[C@@H](Cc2ccc(OCCN)cc2)C(=O)N[C@@H](Cc2ccc3ccccc3c2)C(=O)NC2(C(=O)N[C@@H](CCC(=O)O)C(=O)N[C@@H](CC(N)=O)C(=O)N[C@@H](Cc3cccnc3)C(=O)N(C)CC(=O)N3CCOCC3)CCOCC2)NC1=O` [SEQ ID 112, MeCO-Pen(3)—N-T-7MeW—K(Ac)-Pen(3)-AEF-2Nal-THIP-E-N-3Pya-Sar-COMor], the IC50 came to 5.3 nM.

Take `CC(=O)N(C)CCCC[C@@H]1NC(=O)[C@H](Cc2c[nH]c3c(C)cccc23)NC(=O)[C@H]([C@@H](C)O)NC(=O)[C@H](CC(=O)N(C)C)NC(=O)[C@@H](NC(=O)CCOCCOCC[N+](C)(C)C)C(C)(C)SSC(C)(C)[C@@H](C(=O)N[C@@H](Cc2ccc(OCCN(C)CCOCC[N+](C)(C)C)cc2)C(=O)N[C@@H](Cc2ccc3ccccc3c2)C(=O)NC2(C(=O)N[C@@H](CCCCN(C)C(C)=O)C(=O)N[C@@H](CC(N)=O)C(=O)N[C@@H](Cc3cccnc3)C(=O)N(C)CC(=O)N(C)C)CCOCC2)NC1=O` [compound 237, cPEG3aCO-Pen(3)-N(N(Me)2)-T-7MeW-K(NMeAc)-Pen(3)-AEF(NMePEG2a)-2Nal-THP-K(NMeAc)-N-3Pya-Sar-CON(Me)2]: the IC50 is 2.7 nM.

Consider `Cc1cccc2c(C[C@@H]3NC(=O)[C@H]([C@@H](C)O)NC(=O)[C@H](CC(=O)N(C)C)NC(=O)[C@@H](NC(=O)CCCCC[N+](C)(C)C)C(C)(C)SSC(C)(C)[C@@H](C(=O)N[C@@H](Cc4ccc(OCCN(C)C)cc4)C(=O)N[C@@H](Cc4ccc5ccccc5c4)C(=O)NC4(C(=O)N[C@@H](CCC(=O)N(C)C)C(=O)N[C@@H](CC(N)=O)C(=O)N[C@@H](Cc5cccnc5)C(=O)N(C)CC(=O)N(C)C)CCOCC4)NC(=O)[C@H](CCC(=O)N(C)C)NC3=O)c[nH]c12` [compound 91, 5cpaCO-Pen(3)-N(N(Me)2)-T-7MeW-Q(N(Me)2)-Pen(3)-AEF(N(Me)2)-2Nal-THP-Q(N(Me)2)-N-3Pya-Sar-CON(Me)2], for which the IC50 turned out to be 2.8 nM.
